Values quoted from earlier work, collected in patent US4322416A (dated 1982).

Test system: aromatase
Details: microsomal enzyme preparations from human placenta; cited from earlier work

CCC1(c2ccc(N)cc2)CCC(=O)NC1=O (stereo not shown) [aminoglutethimide]
identified as aromatase inhibitor: identified as aromatase inhibitors
